Measured affinities in a library of Ab-95 light chain variants

From the AlphaSeq antibody data of Engelhart et al. 2022 (doi:10.1038/s41597-022-01779-4), copy in the FLAb collection.

Target peptide (SARS-CoV-2 spike, HR2 region): PDVDLGDISGINAS

Parent scFv Ab-95: VH joined to VL by the linker GGGGSGGGGSGGGGS. Changes lie in the light chain CDRs alone.
VH: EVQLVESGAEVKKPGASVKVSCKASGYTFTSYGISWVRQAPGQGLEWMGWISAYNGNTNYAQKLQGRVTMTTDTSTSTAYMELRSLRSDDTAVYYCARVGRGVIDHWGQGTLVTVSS
VL: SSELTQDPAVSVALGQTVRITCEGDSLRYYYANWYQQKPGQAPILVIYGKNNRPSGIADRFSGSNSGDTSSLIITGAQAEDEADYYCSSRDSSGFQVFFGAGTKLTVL

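Phage display of a naive human antibody library on the peptide gave the parent. The library (AAYL52) carries one to three amino acid substitutions per variant, with no insertions or deletions. The assay is AlphaSeq: two haploid yeast populations carry antibody and antigen on their surface. After mating in shaken culture at 30 °C for 16 h, diploids were selected and their barcode pairs sequenced. A regression on co-assayed BCL2-family reference pairs converts the normalised counts of each replicate to an apparent Kd. Each pool was mated in three replicate cultures.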

The whole VL of each variant is written out. Values are log10 of the apparent Kd in nM; lower means stronger binding. The mean shown is taken over the replicates in which the pair was detected. A pair that was not seen in any replicate is written "not detected"; this usually means weak binding, but a binder can also be missed. Entries are sorted by rising average, undetected variants last.

{"VL": "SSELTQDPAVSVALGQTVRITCEGDSLRYYYANWYQQKPGQAPILVIYGKNNRPDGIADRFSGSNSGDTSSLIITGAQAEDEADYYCSSRDSTGFHVFFGAGTKLTVL", "mean log10 Kd (nM)": "1.66", "replicates with signal": "3/3"}
{"VL": "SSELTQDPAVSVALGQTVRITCGGDSLRYYYANWYQQKPGQAPILVIYGKNNRPSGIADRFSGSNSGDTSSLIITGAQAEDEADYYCSSRDSSGMQVYFGAGTKLTVL", "mean log10 Kd (nM)": "1.96", "replicates with signal": "3/3"}
{"VL": "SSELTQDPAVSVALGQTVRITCEGNSLRYYYANWYQQKPGQAPILVIYGPNNRPSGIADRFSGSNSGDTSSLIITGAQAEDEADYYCSSRDSSGFQVFFGAGTKLTVL", "mean log10 Kd (nM)": "2.11", "replicates with signal": "3/3"}
{"VL": "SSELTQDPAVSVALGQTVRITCEGDSLRYYYANWYQQKPGQAPILVIYGKNNRPSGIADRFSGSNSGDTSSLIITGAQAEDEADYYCSSRDHAGFQVFFGAGTKLTVL", "mean log10 Kd (nM)": "2.32", "replicates with signal": "3/3"}
{"VL": "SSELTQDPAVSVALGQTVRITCEGDSLRYYYANWYQQKPGQAPILVIYGKNNRPSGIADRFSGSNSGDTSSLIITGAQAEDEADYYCESLDSSNFQVFFGAGTKLTVL", "mean log10 Kd (nM)": "2.44", "replicates with signal": "3/3"}
{"VL": "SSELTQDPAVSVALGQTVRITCEGDSLRYYYANWYQQKPGQAPILVIYGKNNRPSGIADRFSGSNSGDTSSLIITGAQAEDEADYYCSSRDSSGFIVTFGAGTKLTVL", "mean log10 Kd (nM)": "2.45", "replicates with signal": "3/3"}
{"VL": "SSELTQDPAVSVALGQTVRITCRGDSLRYWYANWYQQKPGQAPILVIYGKNNRPSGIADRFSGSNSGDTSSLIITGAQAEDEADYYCSSRVSSGFQVFFGAGTKLTVL", "mean log10 Kd (nM)": "2.91", "replicates with signal": "3/3"}
{"VL": "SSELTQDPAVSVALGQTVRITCAGDNLRYYYANWYQQKPGQAPILVIYGKNNRPSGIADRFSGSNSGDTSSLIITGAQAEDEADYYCSSRDSSGFQSFFGAGTKLTVL", "mean log10 Kd (nM)": "2.92", "replicates with signal": "3/3"}
{"VL": "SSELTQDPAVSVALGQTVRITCERDSLRYYYANWYQQKPGQAPILVIYGKNNYASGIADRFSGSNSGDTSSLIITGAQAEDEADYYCSSRDSSGFQVFFGAGTKLTVL", "mean log10 Kd (nM)": "3.01", "replicates with signal": "3/3"}
{"VL": "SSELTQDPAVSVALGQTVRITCEGDSLRYYMANWYQQKPGQAPILVIYGVNNRQSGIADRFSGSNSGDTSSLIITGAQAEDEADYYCSSRDSSGFQVFFGAGTKLTVL", "mean log10 Kd (nM)": "3.05", "replicates with signal": "3/3"}
{"VL": "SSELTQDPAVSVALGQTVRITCEGDSLFYYYANWYQQKPGQAPILVIYGKNVRPAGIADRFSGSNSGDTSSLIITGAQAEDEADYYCSSRDSSGFQVFFGAGTKLTVL", "mean log10 Kd (nM)": "3.10", "replicates with signal": "3/3"}
{"VL": "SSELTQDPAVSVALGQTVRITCEGWSLRYYYANWYQQKPGQAPILVIYGKNYRPSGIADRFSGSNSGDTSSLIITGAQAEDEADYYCSSRDSSGFQVFFGAGTKLTVL", "mean log10 Kd (nM)": "3.12", "replicates with signal": "3/3"}
{"VL": "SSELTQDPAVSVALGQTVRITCEGDSLSVYYANWYQQKPGQAPILVIYGKNNRPLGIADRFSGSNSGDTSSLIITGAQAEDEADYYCSSRDSSGFQVFFGAGTKLTVL", "mean log10 Kd (nM)": "3.35", "replicates with signal": "3/3"}
{"VL": "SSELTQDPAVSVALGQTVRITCEGDSCRYYYANWYQQKPGQAPILVIYGKNNRPSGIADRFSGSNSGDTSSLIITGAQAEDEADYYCSSNDSSGQQVFFGAGTKLTVL", "mean log10 Kd (nM)": "3.55", "replicates with signal": "1/3"}
{"VL": "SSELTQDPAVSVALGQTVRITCVDDSLRYYYSNWYQQKPGQAPILVIYGKNNRPSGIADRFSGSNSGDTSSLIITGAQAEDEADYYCSSRDSSGFQVFFGAGTKLTVL", "mean log10 Kd (nM)": "3.62", "replicates with signal": "2/3"}
{"VL": "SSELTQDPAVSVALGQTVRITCEGDVIRYYYANWYQQKPGQAPILVIYGGNNRPSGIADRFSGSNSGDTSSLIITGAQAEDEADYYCSSRDSSGFQVFFGAGTKLTVL", "mean log10 Kd (nM)": "3.64", "replicates with signal": "3/3"}
{"VL": "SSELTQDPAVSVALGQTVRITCEGDWLRYYYANWYQQKPGQAPILVIYGKNNRPMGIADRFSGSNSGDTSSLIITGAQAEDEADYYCSSRDSPGFQVFFGAGTKLTVL", "mean log10 Kd (nM)": "4.00", "replicates with signal": "3/3"}
{"VL": "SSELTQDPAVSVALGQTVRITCEGDSLRYYYANWYQQKPGQAPILVIYGKNNRSSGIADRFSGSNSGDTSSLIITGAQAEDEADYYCSSRDSSGFCVFFGAGTKLTVL", "mean log10 Kd (nM)": "4.17", "replicates with signal": "3/3"}
{"VL": "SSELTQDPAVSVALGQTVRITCEGDSVRHYYANWYQQKPGQAPILVIYGKNDRPSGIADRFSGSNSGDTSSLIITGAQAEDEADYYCSSRDSSGFQVFFGAGTKLTVL", "mean log10 Kd (nM)": "4.85", "replicates with signal": "1/3"}
{"VL": "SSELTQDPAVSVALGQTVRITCEGDSLRYYYANWYQQKPGQAPILVIYGKNNRPQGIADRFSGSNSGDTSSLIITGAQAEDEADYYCSDRDSSGFQWFFGAGTKLTVL", "mean log10 Kd (nM)": "not detected", "replicates with signal": "0/3"}
{"VL": "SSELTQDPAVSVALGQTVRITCEGDSMRIYYANWYQQKPGQAPILVIYGKNNRPSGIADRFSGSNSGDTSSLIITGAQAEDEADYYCSSRDLSGFQVFFGAGTKLTVL", "mean log10 Kd (nM)": "not detected", "replicates with signal": "0/3"}

The closing 3 entries, repeated:

{"VL": "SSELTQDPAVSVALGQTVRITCEGDSVRHYYANWYQQKPGQAPILVIYGKNDRPSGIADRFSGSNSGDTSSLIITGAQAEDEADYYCSSRDSSGFQVFFGAGTKLTVL", "mean log10 Kd (nM)": "4.85", "replicates with signal": "1/3"}
{"VL": "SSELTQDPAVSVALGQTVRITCEGDSLRYYYANWYQQKPGQAPILVIYGKNNRPQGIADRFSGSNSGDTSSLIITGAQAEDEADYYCSDRDSSGFQWFFGAGTKLTVL", "mean log10 Kd (nM)": "not detected", "replicates with signal": "0/3"}
{"VL": "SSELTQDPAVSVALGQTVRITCEGDSMRIYYANWYQQKPGQAPILVIYGKNNRPSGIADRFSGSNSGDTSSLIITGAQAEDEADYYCSSRDLSGFQVFFGAGTKLTVL", "mean log10 Kd (nM)": "not detected", "replicates with signal": "0/3"}

Parent in this assay: reference entry 2.31, copy in this library 2.25. Background: pairings of library AAYL52 with three empty control strains gave a value in 28% of cases (median 3.91, 5th percentile 2.90). Values in that range, when seen in few replicates, are hard to tell from nonspecific mating.